Data from US4254127A, “1,3-Dihydro-1-[(1-piperidinyl)alkyl]-2H-benzimidazol-2-one derivatives” (Janssen Pharmaceutica, N.V., priority 1980, dated 1981).

These molecules were tested on norepinephrine-induced mortality (assay: combined test in rats: norepinephrine (NOR)-induced mortality). Settings: s.c., norepinephrine 1.25 mg/kg i.v. at 120 minutes, dose protecting 50% of animals.

Row | Compound | ED50 (NOR)-rat [mg/kg]
1 | Cc1ccc2c(c1)[nH]c(=O)n2CCN1CCC(CC(=O)c2ccc(F)cc2)CC1 [5-CH3, H, H, (CH2)2, CO, 4-FC6 H4, base] | 1.25
2 | O=C(CC1CCN(CCn2c(=O)[nH]c3cc(F)ccc32)CC1)c1ccc(F)cc1 [5-F, H, H, (CH2)2, CO, 4-FC6 H4, base] | 2.5
3 | O=C(CC1CCN(CCn2c(=O)[nH]c3ccccc32)CC1)c1ccc(F)cc1 [H, H, H, (CH2)2, CO, 4-FC6 H4, base, 1-[2-[4-[2-(4-fluorophenyl)-2-oxoethyl]-1-piperidinyl]ethyl]-1,3-dihydro-2H-benzimidazol-2-one] | 2.5
4 | O=C(CC1CCN(CCCn2c(=O)[nH]c3ccccc32)CC1)c1ccc(F)cc1 [H, H, H, (CH2)3, CO, 4-FC6 H4, base, 1-[3-[4-[2-(4-fluorophenyl)-2-oxoethyl]-1-piperidinyl]propyl]-1,3-dihydro-2H-benzimidazol-2-one] | 0.16
5 | CC(CCn1c(=O)[nH]c2ccccc21)N1CCC(CC(=O)c2ccc(F)cc2)CC1 (centres unmarked) [H, H, H, [drawing 21], CO, 4-FC6 H4, base, 1-[3-[4-[2-(4-fluorophenyl)-2-oxoethyl]-1-piperidinyl]butyl]-1,3-dihydro-2H-benzimidazol-2-one] | 0.31
